Test results reported in patent US11352331B2, “Crystal and salt of 4-(naphthalen-1-yl)-4H-1,2,4-triazole compound and preparation method therefor” (MEDSHINE DISCOVERY INC., priority 2017, dated 2022).

Biological target: T1, OAT-4 (Homo sapiens, UniProt Q9NSA0)
T1 construct: expressed in transfected cells; host or cells: MDCK (canine kidney) cells; the empty-vector control is pcDNA3.1
T1 sequence (Q9NSA0 1-550): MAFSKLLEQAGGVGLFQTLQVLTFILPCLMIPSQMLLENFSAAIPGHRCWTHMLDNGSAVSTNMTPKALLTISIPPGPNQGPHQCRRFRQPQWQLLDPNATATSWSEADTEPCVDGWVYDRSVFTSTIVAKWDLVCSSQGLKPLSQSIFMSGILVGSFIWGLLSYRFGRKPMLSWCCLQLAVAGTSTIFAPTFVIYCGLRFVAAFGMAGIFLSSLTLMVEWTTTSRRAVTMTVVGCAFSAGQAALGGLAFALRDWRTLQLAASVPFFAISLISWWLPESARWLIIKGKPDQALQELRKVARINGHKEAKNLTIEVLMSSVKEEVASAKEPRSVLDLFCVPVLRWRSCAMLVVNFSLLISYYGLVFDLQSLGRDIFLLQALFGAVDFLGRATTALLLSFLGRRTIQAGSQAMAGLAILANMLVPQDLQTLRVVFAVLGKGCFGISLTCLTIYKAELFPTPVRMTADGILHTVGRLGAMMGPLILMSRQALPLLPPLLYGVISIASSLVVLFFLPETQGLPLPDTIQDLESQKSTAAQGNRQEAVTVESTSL
Assay: Inhibition of substrate uptake in MDCK cells overexpressing OAT-4
Type: cell-based
Details: for IC50: MDCK-OAT4 cells

## O=C(O)CSc1nnc(Br)n1-c1ccc(C2CC2)c2ccccc12 (racemic) [(±)-Lesinurad, lesinurad, reference compound]
Substrate 3H-estrone ammonium sulfate, read-out: IC50 of the inhibition on OAT-4 transporting 3H-ES (3H-estrone ammonium sulfate)
  IC50: 12.7 µM
Substrate 14C-uric acid, read-out: IC50 of the inhibition on OAT-4 transporting 14C-UA (14C-uric acid)
  IC50: 2.17 µM
Comparison of IC50 values
  Inhibition on OAT-4 mediated estrone sulfate ammonium salt transport compared with URAT-1 mediated uric acid transport: 2 times
  Inhibition on OAT-4 mediated uric acid transport compared with URAT-1 mediated uric acid transport: 11 times

Read-outs that look alike come from different tables or passages of the source.
